Molecular target: TLR4 (Homo sapiens, UniProt O00206)
Assay: HEK-Blue hTLR4 NF-kB/SEAP reporter dose-response

Sequences of proteins named here, by UniProt entry; tags and fusion partners are left off. Residues count along the entry.
UniProt O00206, 24-839 limits assumed: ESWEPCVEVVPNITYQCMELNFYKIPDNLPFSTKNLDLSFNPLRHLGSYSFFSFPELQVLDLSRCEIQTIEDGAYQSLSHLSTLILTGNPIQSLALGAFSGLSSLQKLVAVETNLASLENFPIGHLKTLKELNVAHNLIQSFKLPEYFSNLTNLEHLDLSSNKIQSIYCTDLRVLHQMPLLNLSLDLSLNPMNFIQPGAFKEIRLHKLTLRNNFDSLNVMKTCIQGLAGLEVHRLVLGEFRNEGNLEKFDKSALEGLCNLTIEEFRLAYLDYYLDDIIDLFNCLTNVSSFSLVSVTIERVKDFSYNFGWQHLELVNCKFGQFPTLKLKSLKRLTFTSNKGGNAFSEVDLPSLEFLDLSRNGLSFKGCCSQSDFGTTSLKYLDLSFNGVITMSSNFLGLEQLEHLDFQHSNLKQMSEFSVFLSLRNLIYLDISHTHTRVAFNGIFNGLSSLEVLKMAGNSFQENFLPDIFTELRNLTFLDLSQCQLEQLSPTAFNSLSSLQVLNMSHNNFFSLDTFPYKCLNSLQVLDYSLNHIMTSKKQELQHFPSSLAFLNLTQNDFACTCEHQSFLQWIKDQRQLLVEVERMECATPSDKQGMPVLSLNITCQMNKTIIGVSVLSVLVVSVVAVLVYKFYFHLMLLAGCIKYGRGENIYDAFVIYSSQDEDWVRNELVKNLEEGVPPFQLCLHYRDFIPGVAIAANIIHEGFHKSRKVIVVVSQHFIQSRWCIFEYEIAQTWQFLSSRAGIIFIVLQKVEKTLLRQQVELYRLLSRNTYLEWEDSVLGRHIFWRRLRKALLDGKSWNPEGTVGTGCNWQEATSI
UniProt Q9Y6Y9, 19-160 partner limits assumed: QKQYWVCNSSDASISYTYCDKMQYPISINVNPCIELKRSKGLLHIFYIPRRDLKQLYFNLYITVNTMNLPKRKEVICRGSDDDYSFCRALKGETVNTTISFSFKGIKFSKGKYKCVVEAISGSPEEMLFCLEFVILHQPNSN

EC50: 4.3 µM
SMILES: O=C(CSc1nc2c([nH]c3ccccc32)c(=O)n1-c1ccccc1)NC1CCCCC1
